Data reported in patent US11215608B2, “Methods of determining cellular chemosensitivity” (Dana-Farber Cancer Institute, Inc., priority 2006, dated 2022).

By UniProt entry, the sequences of proteins in these tests, tags left out. Residues count along the entry.
UniProt P10415, 1-218 limits assumed: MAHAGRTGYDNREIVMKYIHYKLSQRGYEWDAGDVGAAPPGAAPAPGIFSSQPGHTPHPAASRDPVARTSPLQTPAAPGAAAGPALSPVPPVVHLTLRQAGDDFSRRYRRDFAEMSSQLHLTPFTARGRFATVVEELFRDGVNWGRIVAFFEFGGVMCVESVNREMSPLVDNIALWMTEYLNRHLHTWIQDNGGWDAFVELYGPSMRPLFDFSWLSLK

Assays:
[1] = molecular target: BCL-2 (Homo sapiens, UniProt P10415); assay: Fluorescence polarization binding assay; parameters: In each case, the C-terminus transmembrane domain was truncated to maintain solubility in aqueous solution; GST; made in house; host or cells: bacteria
[2] = test system: leukemic mitochondria; assay: Cytochrome c release from BCL-2 dependent leukemia mitochondria; assay type: biochemical, mouse
Protocol: Mitochondria were purified from liver and FL5.12cells as previously described (Letai et al., 2002). Mitochondria were purified from leukemia cells and 2B4 cells as previously described for FL5.12 cells. Mitochondria were incubated with treatments for 45 (mouse liver mitochondria) or 35 minutes (FL5.12, 2B4, and leukemic mitochondria). Release of cytochrome c was determined by a comparison of cytochrome c in the pellet and supernatant following treatment, quantitated by ELISA (R&D systems). When results of multiple experiments were averaged, results from solvent-only (DMSO) treatments values were subtracted from each, so that 0 release reflects that observed in solvent-only treatments.
Leukemia prone mice were generated as previously described (Letai, 2004). Mouse experimental protocols conform to the relevant regulatory standards and were approved by the Dana-Farber Cancer Institute Animal Care and Use Committee.
Previous results have described a mouse acute lymphocytic leukemia model in which c-myc is constitutively expressed and human BCL-2 is repressibly expressed. […]
Mitochondria were isolated from leukemia cells and exposed to sensitizer BH3 peptides. Subsequently, cytochrome c release was measured. […]

CC[C@H](C)[C@H](NC(=O)[C@H](CS)NC(=O)[C@H](C)NC(=O)[C@H](CC(C)C)NC(=O)[C@H](CCCNC(=N)N)NC(=O)[C@H](CC(C)C)NC(=O)[C@H](C)NC(=O)[C@H](CC(C)C)NC(=O)[C@H](C)NC(=O)[C@H](CC(=O)O)NC(=O)[C@H](CO)NC(=O)CNC(=O)[C@H](CCC(=O)O)NC(=O)[C@H](CCSC)NC(=O)CCCCCNC(=S)Nc1ccc2c(c1)C(=O)OC21c2ccc(O)cc2Oc2cc(O)ccc21)C(=O)NCC(=O)N[C@@H](CC(=O)O)C(=O)N[C@@H](CCC(=O)O)C(=O)N[C@@H](CCSC)C(=O)N[C@@H](CC(=O)O)C(=O)N[C@H](C(=O)O)C(C)C [BIK]
fold lower affinity for BCL-2 than BAD, PUMA or BMF BH3 [1]: approximately 10 fold | concentration needed for cytochrome c release relative to BAD BH3 [2]: requires a ten-fold higher concentration
